The source of these data is IntAct's records for PubMed 23242214.

The chains are these.
B1: Shugoshin 1 (Homo sapiens), Q5FBB7 (parent)
chain: MAKERCLKKSFQDSLEDIKKRMKEKRNKNLAEIGKRRSFIAAPCQIITNTSTLLKNYQDNNKMLVLALENEKSKVKEAQDIILQLRKECYYLTCQLYALKGKLTSQQTVEPAQNQEICSSGMDPNSDDSSRNLFVKDLPQIPLEETELPGQGESFQIEDQIPTIPQDTLGVDFDSGEAKSTDNVLPRTVSVRSSLKKHCNSICQFDSLDDFETSHLAGKSFEFERVGFLDPLVNMHIPENVQHNACQWSKDQVNLSPKLIQPGTFTKTKEDILESKSEQTKSKQRDTQERKREEKRKANRRKSKRMSKYKENKSENKKTVPQKKMHKSVSSNDAYNFNLEEGVHLTPFRQKVSNDSNREENNESEVSLCESSGSGDDSDDLYLPTCKYIQNPTSNSDRPVTRPLAKRALKYTDEKETEGSKPTKTPTTTPPETQQSPHLSLKDITNVSLYPVVKIRRLSLSPKKNKASPAVALPKRRCTASVNYKEPTLASKLRRGDPFTDLCFLNSPIFKQKKDLRRSKKRALEVSPAKEAIFILYYVREFVSRFPDCRKCKLETHICLR
partner: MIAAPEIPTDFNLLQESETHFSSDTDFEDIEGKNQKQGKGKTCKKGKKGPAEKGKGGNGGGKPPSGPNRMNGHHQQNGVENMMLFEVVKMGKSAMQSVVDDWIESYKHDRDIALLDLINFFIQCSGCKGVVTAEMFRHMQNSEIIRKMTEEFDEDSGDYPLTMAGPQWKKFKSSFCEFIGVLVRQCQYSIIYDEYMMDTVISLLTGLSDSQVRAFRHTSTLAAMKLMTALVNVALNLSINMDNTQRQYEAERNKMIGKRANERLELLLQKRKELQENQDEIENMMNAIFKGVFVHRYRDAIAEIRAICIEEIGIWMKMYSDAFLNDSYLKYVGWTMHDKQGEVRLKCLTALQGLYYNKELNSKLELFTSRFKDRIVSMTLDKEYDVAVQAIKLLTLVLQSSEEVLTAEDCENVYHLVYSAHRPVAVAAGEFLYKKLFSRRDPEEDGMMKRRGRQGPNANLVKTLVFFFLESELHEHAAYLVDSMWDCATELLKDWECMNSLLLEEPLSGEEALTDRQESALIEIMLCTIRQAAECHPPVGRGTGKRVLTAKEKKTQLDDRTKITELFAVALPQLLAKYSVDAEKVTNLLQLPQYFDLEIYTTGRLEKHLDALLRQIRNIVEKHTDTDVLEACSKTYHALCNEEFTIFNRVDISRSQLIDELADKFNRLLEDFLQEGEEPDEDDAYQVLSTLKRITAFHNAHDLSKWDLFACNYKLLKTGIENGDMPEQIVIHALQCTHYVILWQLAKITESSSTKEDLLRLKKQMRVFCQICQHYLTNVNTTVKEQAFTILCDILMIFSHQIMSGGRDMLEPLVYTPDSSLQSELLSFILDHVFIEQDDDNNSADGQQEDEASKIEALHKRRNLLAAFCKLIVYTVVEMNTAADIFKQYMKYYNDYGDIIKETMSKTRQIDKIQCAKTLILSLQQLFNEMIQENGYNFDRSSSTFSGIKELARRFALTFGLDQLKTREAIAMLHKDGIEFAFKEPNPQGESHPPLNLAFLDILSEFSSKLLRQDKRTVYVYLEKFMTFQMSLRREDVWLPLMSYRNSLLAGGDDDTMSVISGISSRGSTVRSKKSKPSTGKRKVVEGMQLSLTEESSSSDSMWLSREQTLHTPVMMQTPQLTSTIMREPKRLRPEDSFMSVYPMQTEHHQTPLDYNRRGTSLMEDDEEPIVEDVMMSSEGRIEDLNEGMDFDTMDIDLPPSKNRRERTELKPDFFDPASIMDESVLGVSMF
B2: Shugoshin 1 (Homo sapiens), Q5FBB7 (parent)
chain: B1 chain
partner: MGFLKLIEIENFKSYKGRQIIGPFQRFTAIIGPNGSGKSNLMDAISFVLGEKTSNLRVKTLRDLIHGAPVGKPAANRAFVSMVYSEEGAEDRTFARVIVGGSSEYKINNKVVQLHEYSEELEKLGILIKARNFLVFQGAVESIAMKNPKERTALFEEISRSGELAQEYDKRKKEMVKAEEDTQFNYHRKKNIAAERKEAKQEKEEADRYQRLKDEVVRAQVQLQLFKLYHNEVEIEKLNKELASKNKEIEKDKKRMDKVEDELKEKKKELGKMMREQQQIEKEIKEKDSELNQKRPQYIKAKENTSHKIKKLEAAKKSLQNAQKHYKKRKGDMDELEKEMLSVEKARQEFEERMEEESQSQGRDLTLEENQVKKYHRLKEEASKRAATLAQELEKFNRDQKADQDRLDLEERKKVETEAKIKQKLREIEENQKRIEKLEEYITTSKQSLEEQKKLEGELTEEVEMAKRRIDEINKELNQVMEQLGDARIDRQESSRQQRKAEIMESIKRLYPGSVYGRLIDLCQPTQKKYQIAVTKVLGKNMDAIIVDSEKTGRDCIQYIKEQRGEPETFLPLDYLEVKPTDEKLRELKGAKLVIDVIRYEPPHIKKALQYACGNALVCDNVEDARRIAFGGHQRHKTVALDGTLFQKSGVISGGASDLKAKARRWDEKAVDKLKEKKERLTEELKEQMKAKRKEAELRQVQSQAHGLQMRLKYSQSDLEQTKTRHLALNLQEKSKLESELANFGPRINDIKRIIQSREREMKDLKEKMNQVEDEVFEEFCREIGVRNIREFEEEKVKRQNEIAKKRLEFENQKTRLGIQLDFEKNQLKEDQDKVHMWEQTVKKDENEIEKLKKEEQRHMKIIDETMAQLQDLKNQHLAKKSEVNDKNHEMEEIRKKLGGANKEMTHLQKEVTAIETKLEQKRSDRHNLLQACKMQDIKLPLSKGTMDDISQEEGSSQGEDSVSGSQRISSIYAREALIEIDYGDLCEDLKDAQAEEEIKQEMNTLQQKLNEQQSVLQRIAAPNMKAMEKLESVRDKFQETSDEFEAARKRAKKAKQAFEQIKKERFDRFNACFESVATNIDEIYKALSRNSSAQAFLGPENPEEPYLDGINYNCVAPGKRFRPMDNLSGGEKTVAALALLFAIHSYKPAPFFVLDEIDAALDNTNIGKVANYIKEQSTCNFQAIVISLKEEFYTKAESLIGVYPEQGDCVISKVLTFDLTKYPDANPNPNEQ

In one assay the parent is B1. The settings on record: with stag2_human STAG2, Q8N3U4.
Consider MAKERCLKKSFQDSLEDIKKRMKEKRNKNLAEIGKRRSFIAAPCQIITNTSTLLKNYQDNNKMLVLALENEKSKVKEAQDIILQLRKECYYLTCQLYALKGKLTSQQTVEPAQNQEICSSGMDPNSDDSSRNLFVKDLPQIPLEETELPGQGESFQIEDQIPTIPQDTLGVDFDSGEAKSTDNVLPRTVSVRSSLKKHCNSICQFDSLDDFETSHLAGKSFEFERVGFLDPLVNMHIPENVQHNACQWSKDQVNLSPKLIQPGTFTKTKEDILESKSEQTKSKQRDTQERKREEKRKANRRKSKRMSKYKENKSENKKTVPQKKMHKSVSSNDAYNFNLEEGVHLAPFRQKVSNDSNREENNESEVSLCESSGSGDDSDDLYLPTCKYIQNPTSNSDRPVTRPLAKRALKYTDEKETEGSKPTKTPTTTPPETQQSPHLSLKDITNVSLYPVVKIRRLSLSPKKNKASPAVALPKRRCTASVNYKEPTLASKLRRGDPFTDLCFLNSPIFKQKKDLRRSKKRALEVSPAKEAIFILYYVREFVSRFPDCRKCKLETHICLR [T346A], for which the “effect of a mutation on the interaction” value is listed as “decreasing interaction strength”.

The variants in the next assay derive from B1. The conditions noted are these: with stag2_human STAG2, Q8N3U4. This is another data set of the same source.
For the variant MAKERCLKKSFQDSLEDIKKRMKEKRNKNLAEIGKRRSFIAAPCQIITNTSTLLKNYQDNNKMLVLALENEKSKVKEAQDIILQLRKECYYLTCQLYALKGKLTSQQTVEPAQNQEICSSGMDPNSDDSSRNLFVKDLPQIPLEETELPGQGESFQIEDQIPTIPQDTLGVDFDSGEAKSTDNVLPRTVSVRSSLKKHCNSICQFDSLDDFETSHLAGKSFEFERVGFLDPLVNMHIPENVQHNACQWSKDQVNLSPKLIQPGTFTKTKEDILESKSEQTKSKQRDTQERKREEKRKANRRKSKRMSKYKENKSENKKTVPQKKMHKSVSSNDAYNFNLEEGVHLAPFRQKVSNDSNREENNESEVSLCESSGSGDDSDDLYLPTCKYIQNPTSNSDRPVTRPLAKRALKYTDEKETEGSKPTKTPTTTPPETQQSPHLSLKDITNVSLYPVVKIRRLSLSPKKNKASPAVALPKRRCTASVNYKEPTLASKLRRGDPFTDLCFLNSPIFKQKKDLRRSKKRALEVSPAKEAIFILYYVREFVSRFPDCRKCKLETHICLR [T346A], the “effect of a mutation on the interaction” value is on record as “disrupting interaction strength”.

A further assay covers variants of B2. The conditions noted are these: with smc1a_human SMC1A.
Consider MAKERCLKKSFQDSLEDIKKRMKEKRNKNLAEIGKRRSFIAAPCQIITNTSTLLKNYQDNNKMLVLALENEKSKVKEAQDIILQLRKECYYLTCQLYALKGKLTSQQTVEPAQNQEICSSGMDPNSDDSSRNLFVKDLPQIPLEETELPGQGESFQIEDQIPTIPQDTLGVDFDSGEAKSTDNVLPRTVSVRSSLKKHCNSICQFDSLDDFETSHLAGKSFEFERVGFLDPLVNMHIPENVQHNACQWSKDQVNLSPKLIQPGTFTKTKEDILESKSEQTKSKQRDTQERKREEKRKANRRKSKRMSKYKENKSENKKTVPQKKMHKSVSSNDAYNFNLEEGVHLAPFRQKVSNDSNREENNESEVSLCESSGSGDDSDDLYLPTCKYIQNPTSNSDRPVTRPLAKRALKYTDEKETEGSKPTKTPTTTPPETQQSPHLSLKDITNVSLYPVVKIRRLSLSPKKNKASPAVALPKRRCTASVNYKEPTLASKLRRGDPFTDLCFLNSPIFKQKKDLRRSKKRALEVSPAKEAIFILYYVREFVSRFPDCRKCKLETHICLR [T346A], for which the “effect of a mutation on the interaction” value is on record as “disrupting interaction strength”.
